This assay deals with anti-murine CD8α mAb. Briefly: ELISA, H57 capture, anti-CD8α mAb probe. On the technique in general: ELISA stands for enzyme-linked immunosorbent assay.

The EC50 (read off the curve) is the concentration giving half of the maximal effect. A low value points to a more potent agent.

For the substance “OT1-CD8-T2M fusion protein complex (from UniProt P01731 28-196; P10300 22-175) (Fc fusion)”, the EC50 (read off the curve) stood at 300 nM.

For the origin of these results see patent publication US20260092097A1, “MULTIMERIC IL-15 SOLUBLE FUSION MOLECULES AND METHODS OF MAKING AND USING SAME” (published 2026).
